What was measured:
[1] = biological target: CCR2 (Homo sapiens, UniProt P41597); assay: FLIPR calcium assay, CCR2 cell line; settings: read-out: IC50 (nM) test results for FLIPR detection, CCR2; HEK293 host cell, MCP-1 agonist, intracellular calcium signal
[2] = biological target: CCR5 (Homo sapiens, UniProt P51681); assay: FLIPR calcium assay, CCR5 cell line; settings: read-out: IC50 (nM) test results for FLIPR detection, CCR5; HEK293 host cell, RANTES agonist, intracellular calcium signal
[3] = biological target: CYP1A2 (Homo sapiens, UniProt P05177); assay: Inhibition of human liver microsomal CYP1A2 (phenacetin probe); format: in vitro ADME; settings: read-out: Half inhibitory concentration IC50, CYP1A2, human liver microsomes
Method: (§1) Experimental Example 2. Inhibition of human liver microsomal cytochrome P450 isoenzymes (CYP1A2, CYP2C9, CYP2C19, CYP2D6 and CYP3A4) activity
(§2) A total of 5 specific probe substrates of 5 CYP isozymes, which are phenacetin (PHenacetin, CYP1A2), diclofenac (Diclofenac, CYP2C9), (S)-mephenytoin ((S)-MepHenytoin, CYP2C19), dextromethorpHan (CYP2D6), and midazolam (Midazolam, CYP3A4), were incubated with human liver microsomes respectively. Then, reduced nicotinamide adenine dinucleotide phosphate (NADPH) was added to initiate reaction. After the reaction, the sample is processed and quantitatively detected for the concentrations of the five metabolites produced from the specific substrate, acetaminophen (AcetaminopHen), 4′-hydroxydiclofenac (4′-Hydroxydiclofenac), 4′-Hydroxymephenytoin (4′-HydroxymepHenytoin), Dextrorphan (DextrorpHan), and 1′-Hydroxymidazolam (1′-Hydroxymidazolam) by liquid chromatography-quadrupole mass spectrometry (LC-MS/MS) method to calculate the corresponding half inhibitory concentration (IC50).

Chains of the proteins cited; added tags and fusions are not shown.
UniProt P41597, whole entry: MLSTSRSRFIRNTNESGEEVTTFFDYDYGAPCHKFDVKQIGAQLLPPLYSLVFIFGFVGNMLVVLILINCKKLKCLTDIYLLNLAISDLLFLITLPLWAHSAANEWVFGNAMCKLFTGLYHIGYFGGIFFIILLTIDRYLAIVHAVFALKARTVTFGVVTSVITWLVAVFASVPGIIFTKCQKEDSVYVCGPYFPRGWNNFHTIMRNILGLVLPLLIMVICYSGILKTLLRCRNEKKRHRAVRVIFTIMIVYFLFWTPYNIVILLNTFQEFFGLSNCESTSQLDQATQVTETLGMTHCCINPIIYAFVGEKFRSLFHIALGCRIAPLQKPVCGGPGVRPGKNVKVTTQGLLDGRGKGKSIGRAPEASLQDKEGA
UniProt P51681, whole entry: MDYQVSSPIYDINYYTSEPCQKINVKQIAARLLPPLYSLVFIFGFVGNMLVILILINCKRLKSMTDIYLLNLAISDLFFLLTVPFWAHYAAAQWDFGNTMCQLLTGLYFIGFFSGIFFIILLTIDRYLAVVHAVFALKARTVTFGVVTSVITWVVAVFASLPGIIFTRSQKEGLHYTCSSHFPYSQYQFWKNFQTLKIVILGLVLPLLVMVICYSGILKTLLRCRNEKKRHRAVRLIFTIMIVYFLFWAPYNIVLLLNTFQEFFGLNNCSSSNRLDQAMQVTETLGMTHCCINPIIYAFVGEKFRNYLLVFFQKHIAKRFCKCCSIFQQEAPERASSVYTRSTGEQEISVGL
UniProt P05177, whole entry: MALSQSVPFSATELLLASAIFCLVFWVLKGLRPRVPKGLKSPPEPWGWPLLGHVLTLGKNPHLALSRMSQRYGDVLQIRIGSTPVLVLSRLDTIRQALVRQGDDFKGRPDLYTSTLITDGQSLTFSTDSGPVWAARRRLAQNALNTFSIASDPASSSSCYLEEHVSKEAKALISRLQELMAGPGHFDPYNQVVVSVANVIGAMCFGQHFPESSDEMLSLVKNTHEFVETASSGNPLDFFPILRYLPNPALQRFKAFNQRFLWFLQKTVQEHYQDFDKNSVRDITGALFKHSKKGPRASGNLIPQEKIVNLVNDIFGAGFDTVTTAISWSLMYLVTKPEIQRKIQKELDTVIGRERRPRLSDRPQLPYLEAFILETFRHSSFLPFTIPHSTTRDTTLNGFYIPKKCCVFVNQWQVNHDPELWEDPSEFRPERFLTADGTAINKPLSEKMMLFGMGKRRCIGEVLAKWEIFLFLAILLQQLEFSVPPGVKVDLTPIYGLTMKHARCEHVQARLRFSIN
UniProt P11712, whole entry: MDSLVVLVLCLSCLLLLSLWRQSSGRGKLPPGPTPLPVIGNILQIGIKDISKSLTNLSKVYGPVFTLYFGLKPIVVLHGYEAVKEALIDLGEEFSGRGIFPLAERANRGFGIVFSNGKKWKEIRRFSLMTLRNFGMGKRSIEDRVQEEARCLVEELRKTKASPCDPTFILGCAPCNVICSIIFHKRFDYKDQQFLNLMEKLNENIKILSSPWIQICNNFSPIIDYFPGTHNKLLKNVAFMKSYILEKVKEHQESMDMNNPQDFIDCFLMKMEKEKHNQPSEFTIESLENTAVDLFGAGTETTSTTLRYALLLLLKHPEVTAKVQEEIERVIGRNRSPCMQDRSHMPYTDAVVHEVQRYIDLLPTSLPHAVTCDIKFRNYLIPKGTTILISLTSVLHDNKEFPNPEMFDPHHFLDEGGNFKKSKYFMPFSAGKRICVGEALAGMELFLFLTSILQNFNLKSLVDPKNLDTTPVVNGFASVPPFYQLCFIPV
UniProt P33261, whole entry: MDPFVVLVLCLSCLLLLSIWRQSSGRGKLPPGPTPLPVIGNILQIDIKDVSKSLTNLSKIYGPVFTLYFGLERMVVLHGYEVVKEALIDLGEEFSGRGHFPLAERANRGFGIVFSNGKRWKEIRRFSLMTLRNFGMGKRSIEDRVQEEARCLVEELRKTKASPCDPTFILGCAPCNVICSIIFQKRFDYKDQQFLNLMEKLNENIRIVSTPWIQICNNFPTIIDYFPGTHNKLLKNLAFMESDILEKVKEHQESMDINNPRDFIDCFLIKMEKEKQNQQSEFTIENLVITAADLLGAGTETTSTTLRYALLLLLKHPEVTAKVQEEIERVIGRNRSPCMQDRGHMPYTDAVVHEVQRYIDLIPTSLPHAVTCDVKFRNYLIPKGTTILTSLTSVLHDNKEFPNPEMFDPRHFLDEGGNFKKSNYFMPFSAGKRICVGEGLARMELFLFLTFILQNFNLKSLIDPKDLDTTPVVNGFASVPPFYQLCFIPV
UniProt P10635, whole entry: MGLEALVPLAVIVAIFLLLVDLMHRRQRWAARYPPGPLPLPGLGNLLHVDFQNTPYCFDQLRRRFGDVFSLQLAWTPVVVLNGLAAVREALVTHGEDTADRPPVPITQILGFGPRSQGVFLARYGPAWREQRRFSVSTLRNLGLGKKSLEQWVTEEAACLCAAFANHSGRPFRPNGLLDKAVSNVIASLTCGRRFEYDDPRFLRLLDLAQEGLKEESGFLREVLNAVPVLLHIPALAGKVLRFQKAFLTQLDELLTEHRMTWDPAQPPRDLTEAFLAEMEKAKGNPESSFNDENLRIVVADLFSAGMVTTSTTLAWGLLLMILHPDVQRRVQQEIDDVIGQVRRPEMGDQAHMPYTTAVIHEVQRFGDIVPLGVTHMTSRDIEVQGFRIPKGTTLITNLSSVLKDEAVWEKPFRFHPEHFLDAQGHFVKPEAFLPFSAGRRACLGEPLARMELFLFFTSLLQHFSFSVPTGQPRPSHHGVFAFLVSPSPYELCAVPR
UniProt P08684, whole entry: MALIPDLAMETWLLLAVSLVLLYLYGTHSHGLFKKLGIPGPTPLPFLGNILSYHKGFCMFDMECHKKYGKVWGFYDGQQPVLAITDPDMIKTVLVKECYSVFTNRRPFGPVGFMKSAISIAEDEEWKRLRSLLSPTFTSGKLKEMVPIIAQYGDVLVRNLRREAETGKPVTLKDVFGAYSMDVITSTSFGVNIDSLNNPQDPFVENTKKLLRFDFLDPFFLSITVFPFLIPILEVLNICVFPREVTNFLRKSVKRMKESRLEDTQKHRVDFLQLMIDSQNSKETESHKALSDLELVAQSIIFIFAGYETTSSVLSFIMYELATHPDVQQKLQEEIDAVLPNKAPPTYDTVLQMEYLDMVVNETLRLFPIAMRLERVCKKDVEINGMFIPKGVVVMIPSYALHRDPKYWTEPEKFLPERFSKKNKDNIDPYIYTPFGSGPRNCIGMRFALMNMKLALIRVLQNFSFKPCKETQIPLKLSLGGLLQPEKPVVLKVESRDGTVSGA

[4] = biological target: CYP2C9 (Homo sapiens, UniProt P11712); assay: Inhibition of human liver microsomal CYP2C9 (diclofenac probe); format: in vitro ADME; settings: read-out: Half inhibitory concentration IC50, CYP2C9, human liver microsomes
Method: as §1, §2

[5] = biological target: CYP2C19 (Homo sapiens, UniProt P33261); assay: Inhibition of human liver microsomal CYP2C19 ((S)-mephenytoin probe); format: in vitro ADME; settings: read-out: Half inhibitory concentration IC50, CYP2C19, human liver microsomes
Method: as §1, §2

[6] = biological target: CYP2D6 (Homo sapiens, UniProt P10635); assay: Inhibition of human liver microsomal CYP2D6 (dextromethorphan probe); format: in vitro ADME; settings: read-out: Half inhibitory concentration IC50, CYP2D6, human liver microsomes
Method: as §1, §2

[7] = biological target: CYP3A4 (Homo sapiens, UniProt P08684); assay: Inhibition of human liver microsomal CYP3A4 (midazolam probe); format: in vitro ADME; settings: read-out: Half inhibitory concentration IC50, CYP3A4-M, human liver microsomes
[8] = tested on: human liver microsomal cytochrome P450 isoenzymes; assay: Inhibition of human liver microsomal cytochrome P450 isoenzymes, overall conclusion; format: in vitro ADME; settings: conclusion from Table 2
Method: as §1, §2

CCCCOCCOc1ccc(-c2ccc3c(c2)/C=C(/C(=O)Nc2ccc([S@+]([O-])Cc4c(C)ncn4CC)cc2)CCCN3C[C@H]2CN(C)CCO2)cc1
IC50 [1]: 1.59 nM
IC50 [2]: 0.76 nM

CCCCOCCOc1ccc(-c2ccc3c(c2)C=C(C(=O)Nc2ccc([S@+]([O-])Cc4c(C)ncn4CC)cc2)CCN3C[C@@H]2COCCN2C)cc1
IC50 [1]: 4.97 nM
IC50 [2]: 0.65 nM

CCCCOCCOc1ccc(-c2ccc3c(c2)C=C(C(=O)Nc2ccc([S@+]([O-])Cc4c(C)ncn4CC)cc2)CCN3C[C@H]2CCOC2)cc1
IC50 [1]: 6.19 nM
IC50 [2]: 3.29 nM

CCCCOCCOc1ccc(-c2ccc3c(c2)C=C(C(=O)Nc2ccc([S@+]([O-])Cc4c(C)ncn4CC)cc2)CCN3CC2CCOCC2)cc1
IC50 [1]: 7.65 nM
IC50 [2]: 5.62 nM

CCCCOCCOc1ccc(-c2ccc3c(c2)/C=C(/C(=O)Nc2ccc([S@+]([O-])Cc4c(C)ncn4CC)cc2)CCCN3C[C@@H]2CN(C)CCO2)cc1
IC50 [1]: 2.62 nM
IC50 [2]: 2.45 nM

CCCCOCCOc1ccc(-c2ccc3c(c2)C=C(C(=O)Nc2ccc([S@+]([O-])Cc4c(C)ncn4CC)cc2)CCN3C[C@H]2CN(C)CCO2)cc1
IC50 [1]: 21 nM
IC50 [2]: 10.3 nM

CCCCOCCOc1ccc(-c2ccc3c(c2)C=C(C(=O)Nc2ccc([S@+]([O-])Cc4c(C)ncn4CC)cc2)CCN3CC2COC2)cc1
IC50 [1]: 7.48 nM
IC50 [2]: 7.33 nM

CCCCOCCOc1ccc(-c2ccc3c(c2)C=C(C(=O)Nc2ccc([S@+]([O-])Cc4c(C)ncn4CC)cc2)CCN3C[C@H]2COCCN2C)cc1
IC50 [1]: 18.1 nM
IC50 [2]: 6.99 nM

CCCCOCCOc1ccc(-c2ccc3c(c2)C=C(C(=O)Nc2ccc([S@+]([O-])Cc4c(C)ncn4CC)cc2)CCN3C[C@@H]2CCOC2)cc1
IC50 [1]: 6.82 nM
IC50 [2]: 4.33 nM
IC50 [3]: > 50000 nM
IC50 [4]: 22800 nM
IC50 [5]: > 50000 nM
IC50 [6]: > 50000 nM
IC50 [7]: > 50000 nM
risk of inhibiting the activity of human liver microsomal cytochrome P450 isoenzymes (in words) [8]: no risk of inhibiting the activity

CCCCOCCOc1ccc(-c2ccc3c(c2)/C=C(/C(=O)Nc2ccc([S@+]([O-])Cc4c(C)ncn4CC)cc2)CCCN3CC2COCCN2C)cc1 (stereo partly shown)
IC50 [1]: 3.9 nM
IC50 [2]: 4.12 nM

CCCCOCCOc1ccc(-c2ccc3c(c2)C=C(C(=O)Nc2ccc([S@+]([O-])Cc4c(C)ncn4CC)cc2)CCN3C[C@@H]2CN(C)CCO2)cc1
IC50 [1]: 48.9 nM
IC50 [2]: 15.7 nM
